This data set addresses aprotinin (UniProt P00974).

The text below walks through data of patent publication US9549967B2, “Regulation of sodium channels by PLUNC proteins” (The University of North Carolina at Chapel Hill, priority 2009, dated 2017).

trypsin: the “cleavage of fluorogenic substrate BGAR-MCA by trypsin” value was 2 U/ml aprotinin which inhibited trypsin activity by ˜100%.
